Antibody variant affinities, Ab-14 heavy chain, assay B

Reference: Li et al. 2023, doi:10.1038/s41467-023-39022-2. File: FLAb, binding data.

Target peptide (SARS-CoV-2 spike, HR2 region): PDVDLGDISGINAS

Each scFv is VH, the linker GGGGSGGGGSGGGGS, VL, as in the parent Ab-14, and differs from it in the CDRs of the heavy chain only.
VH: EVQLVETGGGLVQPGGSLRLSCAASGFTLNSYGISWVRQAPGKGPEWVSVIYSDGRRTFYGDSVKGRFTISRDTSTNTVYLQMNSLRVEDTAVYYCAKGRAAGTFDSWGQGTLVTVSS
VL: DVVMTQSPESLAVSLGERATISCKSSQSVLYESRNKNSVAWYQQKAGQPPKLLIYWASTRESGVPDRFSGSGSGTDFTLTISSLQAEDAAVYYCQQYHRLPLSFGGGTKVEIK

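The parent was found by panning a naive human phage display library on the peptide. These sequences belong to a second round, designed from the earlier measurements on random variants of the parent. Group labels follow the data file (Ctrl: baseline library sampled from a position-specific scoring matrix, with some repeated check sequences; Rand: our label for a block that the file lists under HC and that is probably the random mutants of the ten best first-round binders; En: ensemble of fine-tuned language models; GP: Gaussian process model; GPLM: also part of the Gaussian process libraries; HC: hill climbing; Gen: genetic algorithm; Gibbs: Gibbs sampling; a sequence that several methods proposed may carry one label only). The assay is AlphaSeq: two haploid yeast populations carry antibody and antigen on their surface. The frequency of each diploid, read from paired DNA barcodes, reflects how well the two displayed proteins bind. A regression on co-assayed BCL2-family reference pairs converts the normalised counts of each replicate to an apparent Kd. Mating was done six times.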

The parent's heavy chain CDRs are GFTLNSYGIS, VIYSDGRRTFYGDSVK, GRAAGTFDS; each variant's own CDRs replace them letter for letter. Scale: log10 of Kd in nM, estimated from mating counts; low values are strong binders. The mean shown is taken over the replicates in which the pair was detected. "nd" marks a missing value. The strain was present, yet no cells mated with the target were sequenced in any replicate, which points to weak or no binding. A sequence that the file lists under several names has all its replicates pooled.

GQSLEDYGIS | VIYADGQRNAAADEVK | GENAGTFDI [En_Gibbs]: nd (0 of 6 replicates).
GETLNDYGIS | VIYSDGRRTFYGDNVK | GRAAGTFDS [Ctrl]: nd (0 of 6 replicates).
GFTLEDYGIS | VIYADGRRTFYGDSVK | GRAAGTGDS [Ctrl]: nd (0 of 6 replicates).
GFTLNDYGIS | VIYSDGRRTFYGDSVA | GTAAGTFDS [Ctrl]: 0.76 (6 of 6 replicates).
YFSLNEYGIS | VIYSDGRRTFYGDSVK | GREAGTFDS [GP_Gibbs]: 0.80 (4 of 6 replicates).
GFTLNDYGIS | VIYSDGQRTFYGDSVK | GRTAGTFDS [GPLM_Gen]: -0.11 (6 of 6 replicates).
GFDLNEYGIS | VIYADGMRTAYADSVK | GNHAGTFDI [En_Gen]: 0.02 (6 of 6 replicates).
GFDLKEQGIS | VIYADGMRTFYTDKVK | GQNSNGFDM [En_Gibbs]: nd (0 of 6 replicates).
GFDLDEYGIS | VIYADGIRSQYHDSVK | GTGGFTIEA [En_Gibbs]: 2.03 (1 of 6 replicates).
GFQIDEYGIS | VIYADGKRSMYTDKVK | GVDADTMMV [En_Gibbs]: nd (0 of 6 replicates).
GFSLDEQGIS | VIYADGIRRVYIDKVK | GQYGGDFIE [En_Gibbs]: nd (0 of 6 replicates).
GFTLKSYGIS | VIYSDGRRTFYGDSVK | GQTAGTFDL [GP_Gibbs]: 1.98 (2 of 6 replicates).
GFDLNSYGIS | VIYSDGRRTFYGDSVK | GRMAGSFDS [GPLM_HC]: nd (0 of 6 replicates).
GFDLNEYGIS | VIYADGRRTSYIDSVK | GEIAGTFDS [En_HC]: -0.34 (6 of 6 replicates).
GFFLNEYGIS | VIYSDGRRTFYGDSVK | GQEAGTFDT [GP_Gibbs]: 0.44 (6 of 6 replicates).
GFSLNSYGIS | VIYSDGRRTFYADSVK | GKTAGTFDW [GPLM_Gen]: 0.31 (6 of 6 replicates).
GFDLNEYGIS | VIYADGRRTFYVDSVK | GKNAGTFDS [En_HC]: -0.57 (6 of 6 replicates).
GFDLDEYGIS | VIYADGVRTAYSDSVK | GNTAGTFDV [En_Gen]: -0.62 (6 of 6 replicates).
GFDLDEYGIS | VIYADGSRTAYADSVK | GTNAGTFDI [En_Gen]: 0.38 (6 of 6 replicates).
GFDLNEYGIS | VIYADGMRTAYADSVK | GANAGTFDM [En_Gen]: -0.89 (6 of 6 replicates).
GFSLNSYGIS | VIYSDGRRTFYSDSVK | GQAAGTFDA [GPLM_Gen]: 0.27 (6 of 6 replicates).
GFNLEDYGIS | VIYADGRRTFYADSVK | GQVAGTFDV [En_HC]: -0.31 (6 of 6 replicates).
GFTLGEYGIS | VIYADGERTMYSNAVK | GNMAGTFSF [En_Gibbs]: -1.10 (6 of 6 replicates).

Continued, with the values leading:

-0.25 (6 of 6 replicates): GFDLNSYGIS | VIYSDGRRTFYVDSVK | GTAAGTFDS [GPLM_Gibbs].
0.11 (6 of 6 replicates): GFELNTYGIS | VIYSDGRRTFYADSVK | GKAAGTFDT [GP_Gibbs].
2.04 (5 of 6 replicates): GFNLNSYGIS | VIYSDGRRTFYSDSVK | GRAAGFFDS [GP_HC].
nd (0 of 6 replicates): GFTLNSQGIS | VIYSDGRRTFYGDDVR | GTAAGRFDS [Ctrl].
nd (0 of 6 replicates): GIDLEEYGIS | VIYADGMRKAYINSVK | GGDSVTTFV [En_Gibbs].
nd (0 of 6 replicates): GFTLNSYGIS | VIYSDGFRVFIGDSVK | GRAAGTFDS [Ctrl].
-0.02 (6 of 6 replicates): GFDLNEYGIS | VIYADGMRTAYADDVK | GNAAGTFDV [En_Gen].
0.36 (6 of 6 replicates): GFTLNEYGIS | VIYSDGWRTFYSDSVK | GRTAGTFDT [GP_Gibbs].
1.28 (6 of 6 replicates): GFDLDEYGIS | VIYADGMRTAYSDSVK | GEVAGTFDT [En_Gen].
-0.04 (6 of 6 replicates): GFDIQDYGIS | VIYADGLRTSVSNNFK | GIIAGTFTS [En_Gibbs].
nd (0 of 6 replicates): GFTLNSYWIS | VIYSDGRRTFYGDSVR | GRAAGYFDQ [Ctrl].
nd (0 of 6 replicates): GFTFNSYGIS | VIYSDGRRWFYSDSVK | GRAGGTFDS [Rand].
0.81 (6 of 6 replicates): GFDLNSYGIS | VIYSDGRRTFYKDSVK | GQAAGTFDD [GP_Gibbs].
nd (0 of 6 replicates): GFGLNEYGIS | VIYADGVRTAYLQNVK | GIVTGFDQY [En_Gibbs].
0.77 (6 of 6 replicates): GFTLNSYGIS | VIYSDGLRTFYSDSVK | GQAAGTFDS [GPLM_Gen].
0.62 (6 of 6 replicates): GFSLNQYGIS | VIYSDGRRTFYVDSVK | GRTAGTFDS [GP_Gibbs].
2.52 (2 of 6 replicates): GFTLKSYGIS | VIYSDGRRTFYGDSVK | GKLAGTFDS [GP_HC].
0.69 (12 of 12 replicates): GFSLNSYGIS | VIYSDGRRTFYGDSVK | GRAAGTFDS [Ctrl+GPLM_Gen].
1.91 (1 of 6 replicates): GFDLGEYGIS | VIYADGQRKAYAQQFK | GEAGGAFDL [En_Gibbs].
1.82 (6 of 6 replicates): GFELNEYGIS | VIYSDGRRNFYGDSVK | GRAAGTFDS [Ctrl].
-0.31 (6 of 6 replicates): GFDLNTYGIS | VIYSDGRRTFYGDQVK | GRTAGTFDS [GP_Gen].
0.37 (5 of 6 replicates): GFTLNSYGIS | VIYSDGRRTFYSDQVK | GQTAGTFDS [GP_Gen].
nd (0 of 6 replicates): GFNVNEYGIS | VIYADGLRTQYIDSVK | GNAFIFGLD [En_Gibbs].
-0.98 (6 of 6 replicates): GFDLNEYGIS | VIYADGSRTAYADSVK | GNNAGTFDI [En_Gen].

4 of these entries, quoted again:

| CDR-H1 | CDR-H2 | CDR-H3 | group | mean, log10 nM | detected |
|---|---|---|---|---|---|
| GFTFNSYGIS | VIYSDGRRWFYSDSVK | GRAGGTFDS | Rand | nd | 0/6 |
| GFSLNQYGIS | VIYSDGRRTFYVDSVK | GRTAGTFDS | GP_Gibbs | 0.62 | 6/6 |
| GFDLDEYGIS | VIYADGIRSQYHDSVK | GTGGFTIEA | En_Gibbs | 2.03 | 1/6 |
| GFSLNSYGIS | VIYSDGRRTFYADSVK | GKTAGTFDW | GPLM_Gen | 0.31 | 6/6 |

Background: pairings of all heavy chain designs with three empty control strains gave a value in 1% of cases (median 2.08, 5th percentile 0.84). Values in that range, when seen in few replicates, are hard to tell from nonspecific mating. Values of this round are not directly comparable with the first-round values of the same sequences. The parent sequence was in this pool as ten entries: three were never detected, three once, and four in most replicates, with averages from 0.34 to 2.37. The authors' rule: three or more of the six replicates give a measured affinity, fewer mean a poor binder.